Reference: PubChem BioAssay AID1508591

Conditions: rat; liver microsomes; pH 7.4; 15.0 min; 1.0 µM

Compound: Cc1nc(Nc2ncc(C(=O)Nc3c(C)cccc3Cl)s2)cc(N2CCN(CCO)CC2)n1
- half-life: 17.1 min

Compound: CN(Cc1cnc2nc(N)nc(N)c2n1)c1ccc(C(=O)N[C@@H](CCC(=O)O)C(=O)O)cc1
- half-life: > 30 min
